{
  "sequences": {"note": "Sequences of proteins named here, by UniProt entry; tags and fusion partners are left off. A change or cut given only in a name is not applied to a line headed by its entry.", "UniProt P41144": "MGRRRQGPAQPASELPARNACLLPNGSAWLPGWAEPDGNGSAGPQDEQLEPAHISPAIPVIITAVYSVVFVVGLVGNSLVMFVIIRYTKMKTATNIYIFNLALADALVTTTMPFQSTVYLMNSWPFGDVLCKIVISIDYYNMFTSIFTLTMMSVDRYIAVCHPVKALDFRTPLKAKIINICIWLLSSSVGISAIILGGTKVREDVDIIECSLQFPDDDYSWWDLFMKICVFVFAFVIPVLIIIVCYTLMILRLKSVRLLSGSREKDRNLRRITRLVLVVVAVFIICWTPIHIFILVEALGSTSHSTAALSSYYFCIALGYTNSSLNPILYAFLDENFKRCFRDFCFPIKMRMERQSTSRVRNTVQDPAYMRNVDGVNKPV"},
  "source": "patent US6531481B2",
  "about": "(priority 1998, dated 2003)",
  "molecular_target": "kappa opioid receptor (Cavia porcellus, UniProt P41144)",
  "assay": "Opioid binding assay, kappa-1 binding sites labeled with [3H]U69,593",
  "conditions": "read-out: Kd of [3H]U69,593 binding; under the assay conditions",
  "data": [
    {"substance": "[^3H](5α,7α,8β)-(−)-N-methyl-N-[7-(1-pyrrolidinyl)-1-oxaspiro[4,5]dec-8-yl]benzeneacetamide", "values": [
      {"measurement": "Kd", "value": 3.75, "unit": "nM"}
    ]}
  ]
}
